Laboratory results published in paper PMC11463018 (Journal of Enzyme Inhibition and Medicinal Chemistry, 2024).

Tested on: RPMI-8226 cells
Assay: Apoptosis assay
Conditions: 1 μM, 48 h, flow cytometry

SMILES	Induction of RPMI-8226 cells apoptosis [%]
O=C(CCCCCCC(=O)Nc1ccccc1)NO [SAHA, vorinostat, reference compound]	62.2
O=C(Nc1nc2cccc(-c3ccc(CN4CCS(=O)(=O)CC4)cc3)n2n1)C1CC1 [Filgotinib, reference compound]	15.28
